Molecules are shown by their SMILES.

Sequences of proteins named here, by UniProt entry; tags and fusion partners are left off. Residues count along the entry.
UniProt P25774, 115-331: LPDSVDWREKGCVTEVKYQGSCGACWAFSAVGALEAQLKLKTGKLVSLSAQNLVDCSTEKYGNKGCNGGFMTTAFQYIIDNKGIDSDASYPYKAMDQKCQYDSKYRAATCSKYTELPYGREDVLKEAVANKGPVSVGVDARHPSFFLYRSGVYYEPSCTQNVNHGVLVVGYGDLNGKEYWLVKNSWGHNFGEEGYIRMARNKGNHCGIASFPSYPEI

The assay has as its target T1, Recombinant human cathepsin S (CatS) (Homo sapiens, UniProt P25774).
T1 construct: made in house; host or cells: baculovirus system (insect cells)
Nature of the assay: biochemical.
Take `CS(=O)(=O)N1CCc2c(c(-c3ccc(C(F)(F)F)cc3)nn2CC(O)CN2CCC(n3cnc4ccccc43)CC2)C1` (stereo not drawn) [Example 215, 1-(4-Benzoimidazol-1-yl-piperidin-1-yl)-3-[5-methanesulfonyl-3-(4-trifluoromethyl-phenyl)-4,5,6,7-tetrahydro-pyrazolo[4,3-c]pyridin-1-yl]-propan-2-ol]: the 50% inhibitory concentration (IC50) turned out to be 140 nM.
For the compound `CC(=O)N1CCc2c(c(-c3ccc(Br)cc3)nn2CC(O)CN2CCC(n3c(=O)[nH]c4ccc(Cl)cc43)CC2)C1` (stereo not drawn) [Example 259, 1(1-{3-[5-Acetyl-3-(4-bromo-phenyl)-4,5,6,7-tetrahydro-pyrazolo[4,3-c]pyridin-1-yl]-2-hydroxy-propyl}-piperidin-4-yl)-6-chloro-1,3-dihydro-benzoimidazol-2-one], the IC50 is 120 nM.
Next, `CC(=O)N1CCc2c(c(-c3ccc(Cl)cc3)nn2CC(O)CN2CCC(Nc3cccc(Cl)c3)CC2)C1` (stereo not drawn) [Example 213, 1-(3-(4-Chloro-phenyl)-1-{3-[4-(3-chloro-phenylamino)-piperidin-1-yl]-2-hydroxy-propyl}-1,4,6,7-tetrahydro-pyrazolo[4,3-c]pyridin-5-yl)-ethanone]: 1100 nM; `CC(=O)N1CCc2c(c(-c3ccc(Cl)c(C)c3)nn2CC(O)CN2CCC(n3c(=O)n(CCO)c4ccccc43)CC2)C1` (stereo not drawn) [Example 308, 1-(1-{3-[5-Acetyl-3-(4-chloro-3-methyl-phenyl)-4,5,6,7-tetrahydro-pyrazolo[4,3-c]pyridin-1-yl]-2-hydroxy-propyl}-piperidin-4-yl)-3-(2-hydroxy-ethyl)-1,3-dihydro-benzoimidazol-2-one]: 130 nM.
Next, `CC(=O)N1CCc2c(c(-c3ccc(C(F)(F)F)cc3)nn2CC(O)CN2CCC(n3c(=O)n(CC#N)c4ccccc43)CC2)C1` (stereo not drawn) [Example 315, [3-(1-{3-[5-Acetyl-3-(4-trifluoromethyl-phenyl)-4,5,6,7-tetrahydro-pyrazolo[4,3-c]pyridin-1-yl]-2-hydroxy-propyl}-piperidin-4-yl)-2-oxo-2,3-dihydro-benzoimidazol-1-yl]-acetonitrile]: 80 nM.
Next, `COc1ccc2c(n1)n(C1CCN(CCCn3nc(-c4ccc(C(F)(F)F)cc4)c4c3CCN(S(C)(=O)=O)C4)CC1)c(=O)n2C` [Example 337, 3-(1-{3-[5-Methanesulfonyl-3-(4-trifluoromethyl-phenyl)-4,5,6,7-tetrahydro-pyrazolo[4,3-c]pyridin-1-yl]-propyl}-piperidin-4-yl)-5-methoxy-1-methyl-1,3-dihydro-imidazo[4,5-b]pyridin-2-one]: 100 nM; `CCn1c(=O)n(C2CCN(CC(O)Cn3nc(-c4ccc(Cl)c(C)c4)c4c3CCN(C(C)=O)C4)CC2)c2ccccc21` (stereo not drawn) [Example 261, 1-(1-{3-[5-Acetyl-3-(4-chloro-3-methyl-phenyl)-4,5,6,7-tetrahydro-pyrazolo[4,3-c]pyridin-1-yl]-2-hydroxy-propyl}-piperidin-4-yl)-3-ethyl-1,3-dihydro-benzoimidazol-2-one]: 350 nM.
For the compound `CC(=O)N1CCc2c(c(-c3ccc(Cl)c(C)c3)nn2CC(O)CN2CCC(N3CCc4cc(Br)ccc43)CC2)C1` (stereo not drawn) [Example 207, 1-[1-{3-[4-(5-Bromo-2,3-dihydro-indol-1-yl)-piperidin-1-yl]-2-hydroxy-propyl}-3-(4-chloro-3-methyl-phenyl)-1,4,6,7-tetrahydro-pyrazolo[4,3-c]pyridin-5-yl]-ethanone], the IC50 came out at 1300 nM.
For the compound `CC(=O)N1CCc2c(c(-c3ccc(I)cc3)nn2CC(O)CN2CCC(n3c(=O)[nH]c4c(F)ccc(C#N)c43)CC2)C1` (stereo not drawn) [Example 266, 3-(1-{3-[5-Acetyl-3-(4-iodo-phenyl)-4,5,6,7-tetrahydro-pyrazolo[4,3-c]pyridin-1-yl]-2-hydroxy-propyl}-piperidin-4-yl)-7-fluoro-2-oxo-2,3-dihydro-1H-benzoimidazole-4-carbonitrile], the IC50 was 660 nM.
Next, `CCn1c(=O)n(C2CCN(CC(O)Cn3nc(-c4ccc(C(F)(F)F)cc4)c4c3CCN(C(C)=O)C4)CC2)c2ccccc21` (stereo not drawn) [Example 301, 1-(1-{3-[5-Acetyl-3-(4-trifluoromethyl-phenyl)-4,5,6,7-tetrahydro-pyrazolo[4,3-c]pyridin-1-yl]-2-hydroxy-propyl}-piperidin-4-yl)-3-ethyl-1,3-dihydro-benzoimidazol-2-one]: 180 nM.
In the case of `COc1ccc2c(c1)oc(=O)n2C1CCN(CC(O)Cn2nc(-c3ccc(Br)cc3)c3c2CCN(C(C)=O)C3)CC1` (stereo not drawn) [Example 392, 3-(1-{3-[5-Acetyl-3-(4-bromo-phenyl)-4,5,6,7-tetrahydro-pyrazolo[4,3-c]pyridin-1-yl]-2-hydroxy-propyl}-piperidin-4-yl)-6-methoxy-3H-benzooxazol-2-one], the IC50 was determined as 270 nM.
Consider `CN(C)c1ccc2c(n1)n(C1CCN(C[C@@H](O)Cn3nc(-c4ccc(C(F)(F)F)cc4)c4c3CCN(S(C)(=O)=O)C4)CC1)c(=O)n2C` [Example 385, (R)-5-Dimethylamino-3-(1-{2-hydroxy-3-[5-methanesulfonyl-3-(4-trifluoromethyl-phenyl)-4,5,6,7-tetrahydro-pyrazolo[4,3-c]pyridin-1-yl]-propyl}-piperidin-4-yl)-1-methyl-1,3-dihydro-imidazo[4,5-b]pyridin-2-one], for which the IC50 is 40 nM.
As to `CC(=O)N1CCc2c(c(-c3ccc(Cl)c(C)c3)nn2CC(O)CN2CCC(n3c(=O)n(CC(N)=O)c4ccccc43)CC2)C1` (stereo not drawn) [Example 316, 2-[3-(1-{3-[5-Acetyl-3-(4-chloro-3-methyl-phenyl)-4,5,6,7-tetrahydro-pyrazolo[4,3-c]pyridin-1-yl]-2-hydroxy-propyl}-piperidin-4-yl)-2-oxo-2,3-dihydro-benzoimidazol-1-yl]-acetamide], the IC50 was found to be 280 nM.
With `CC(=O)N1CCc2c(c(-c3ccc(Br)cc3)nn2C[C@H](O)CN2CCC(n3c(=O)[nH]c4ccc(Cl)cc43)CC2)C1` [Example 289, (R)-1-(1-{3-[5-Acetyl-3-(4-bromo-phenyl)-4,5,6,7-tetrahydro-pyrazolo[4,3-c]pyridin-1-yl]-2-hydroxy-propyl}-piperidin-4-yl)-6-chloro-1,3-dihydro-benzoimidazol-2-one], the IC50 worked out at 200 nM.
Regarding `Cc1cc(-c2nn(CC(O)CN3CCC(n4c(=O)n(CCN5CCOCC5)c5ccccc54)CC3)c3c2CN(S(C)(=O)=O)CC3)ccc1Cl` (stereo not drawn) [Example 281, 1-(1-{3-[3-(4-Chloro-3-methyl-phenyl)-5-methanesulfonyl-4,5,6,7-tetrahydro-pyrazolo[4,3-c]pyridin-1-yl]-2-hydroxy-propyl}-piperidin-4-yl)-3-(2-morpholin-4-yl-ethyl)-1,3-dihydro-benzoimidazol-2-one], the IC50 stood at 330 nM.
Regarding `CC(=O)N1CCc2c(c(-c3ccc(Cl)c([N+](=O)[O-])c3)nn2CC(O)CN2CCC(n3c(=O)[nH]c4ccccc43)CC2)C1` (stereo not drawn) [Example 256, 1-(1-{3-[5-Acetyl-3-(4-chloro-3-nitro-phenyl)-4,5,6,7-tetrahydro-pyrazolo[4,3-c]pyridin-1-yl]-2-hydroxy-propyl}-piperidin-4-yl)-1,3-dihydro-benzoimidazol-2-one], the IC50 was 640 nM.
With `Cc1cc(-c2nn(CC(O)CN3CCC(n4c(=O)[nH]c5ccccc54)CC3)c3c2CN(S(C)(=O)=O)CC3)ccc1Cl` (stereo not drawn) [Example 270, 1-(1-{3-[3-(4-Chloro-3-methyl-phenyl)-5-methanesulfonyl-4,5,6,7-tetrahydro-pyrazolo[4,3-c]pyridin-1-yl]-2-hydroxy-propyl}-piperidin-4-yl)-1,3-dihydro-benzoimidazol-2-one], the IC50 turned out to be 40 nM.
For `CC(=O)N1CCc2c(c(-c3ccc(Br)cc3)nn2CC(O)CN2CCC(Oc3ccc(Cl)c(Cl)c3)CC2)C1` (stereo not drawn) [Example 239, 1-(3-(4-Bromo-phenyl)-1-{3-[4-(3,4-dichloro-phenoxy)-piperidin-1-yl]-2-hydroxy-propyl}-1,4,6,7-tetrahydro-pyrazolo[4,3-c]pyridin-5-yl)-ethanone], the half-inhibitory concentration (IC50) worked out at 340 nM.
In the case of `CC(=O)N1CCc2c(c(-c3ccc(Cl)c(C)c3)nn2CC(O)CN2CCC(n3c(=O)n(CC(F)(F)F)c4ccccc43)CC2)C1` (stereo not drawn) [Example 306, 1-(1-{3-[5-Acetyl-3-(4-chloro-3-methyl-phenyl)-4,5,6,7-tetrahydro-pyrazolo[4,3-c]pyridin-1-yl]-2-hydroxy-propyl}-piperidin-4-yl)-3-(2,2,2-trifluoro-ethyl)-1,3-dihydrobenzoimidazol-2-one] it was 90 nM; in that of `CC(=O)N1CCc2c(c(-c3ccc(Cl)c(C)c3)nn2CC(O)CN2CCC(n3c(=O)n(CC(=O)O)c4ccccc43)CC2)C1` (stereo not drawn) [Example 327, [3-(1-{3-[5-Acetyl-3-(4-chloro-3-methyl-phenyl)-4,5,6,7-tetrahydro-pyrazolo[4,3-c]pyridin-1-yl]-2-hydroxy-propyl}-piperidin-4-yl)-2-oxo-2,3-dihydro-benzoimidazol-1-yl]-acetic acid], 520 nM; in that of `CC(=O)N1CCc2c(c(-c3ccc(Br)cc3)nn2CC(O)CN2CCC(n3c(=O)oc4ccc(Cl)cc43)CC2)C1` (stereo not drawn) [Example 386, 3-(1-{3-[5-Acetyl-3-(4-bromo-phenyl)-4,5,6,7-tetrahydro-pyrazolo[4,3-c]pyridin-1-yl]-2-hydroxy-propyl}-piperidin-4-yl)-5-chloro-3H-benzooxazol-2-one], 370 nM.
In the case of `CC(=O)N1CCc2c(c(-c3ccc(C(F)(F)F)cc3)nn2CC(O)CN2CCC(c3nc4ccccc4s3)CC2)C1` (stereo not drawn) [Example 126, 1-[1-[3-(4-Benzothiazol-2-yl-piperidin-1-yl)-2-hydroxy-propyl]-3-(4-trifluoromethyl-phenyl)-1,4,6,7-tetrahydro-pyrazolo[4,3-c]pyridin-5-yl]-ethanone], the IC50 was 80 nM.
As for `CC(=O)N1CCc2c(c(-c3ccc(Br)cc3)nn2CC(O)CN2CCC(Oc3ccccc3C)CC2)C1` (stereo not drawn) [Example 233, 1-{3-(4-Bromo-phenyl)-1-[2-hydroxy-3-(4-o-tolyloxy-piperidin-1-yl)-propyl]-1,4,6,7-tetrahydro-pyrazolo[4,3-c]pyridin-5-yl}-ethanone], the IC50 came to 340 nM.
In the case of `CC(=O)N1CCc2c(c(-c3ccc(Cl)c(C)c3)nn2CC(O)CN2CCC(Oc3cccc(Cl)c3)CC2)C1` (stereo not drawn) [Example 244, 1-(3-(4-Chloro-3-methyl-phenyl)-1-{3-[4-(3-chloro-phenoxy)-piperidin-1-yl]-2-hydroxy-propyl}-1,4,6,7-tetrahydro-pyrazolo[4,3-c]pyridin-5-yl)-ethanone] it was 650 nM.

The values are drawn from patent US6953793B2 (priority 2000, dated 2005).
